Assay results published in PubChem BioAssay (NCI).
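Protocol summary: plate cells (96-well), add compound at 5 concentrations, incubate 48 h, interpolate endpoints linearly. Abbreviation: GI50, concentration required for 50% inhibition of growth. Definition used: TGI = concentration required for complete inhibition of growth.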

Experiments:
Experiment in all cases: NCI tumour cell line growth inhibition, 48 h; in the data active = GI50 below about 0.43 µM; inactive = the rest
786-0 renal = test system: 786-0 renal
A498 renal = test system: A498 renal
A549 NSCLC = test system: A549 NSCLC
ACHN renal = test system: ACHN renal
BT-549 breast = test system: BT-549 breast
CAKI-1 renal = test system: CAKI-1 renal
COLO 205 colon = test system: COLO 205 colon
DU-145 prostate = test system: DU-145 prostate
EKVX NSCLC = test system: EKVX NSCLC
HCT-116 colon = test system: HCT-116 colon
HCT-15 colon = test system: HCT-15 colon
HOP-62 NSCLC = test system: HOP-62 NSCLC
HOP-92 NSCLC = test system: HOP-92 NSCLC
HS 578T breast = test system: HS 578T breast
HT29 colon = test system: HT29 colon
IGROV1 ovarian = test system: IGROV1 ovarian
K-562 leukemia = test system: K-562 leukemia
KM12 colon = test system: KM12 colon
LOX IMVI melanoma = test system: LOX IMVI melanoma
M14 melanoma = test system: M14 melanoma
MALME-3M melanoma = test system: MALME-3M melanoma
MCF7 breast = test system: MCF7 breast
MDA-MB-231 breast = test system: MDA-MB-231 breast
MDA-MB-435 = test system: MDA-MB-435
MDA-N = test system: MDA-N
NCI-H226 lung = test system: NCI-H226 lung
NCI-H23 lung = test system: NCI-H23 lung
NCI-H322M lung = test system: NCI-H322M lung
NCI-H460 lung = test system: NCI-H460 lung
NCI-H522 lung = test system: NCI-H522 lung
NCI/ADR-RES ovarian = test system: NCI/ADR-RES ovarian
OVCAR-3 ovarian = test system: OVCAR-3 ovarian
OVCAR-4 ovarian = test system: OVCAR-4 ovarian
OVCAR-5 ovarian = test system: OVCAR-5 ovarian
OVCAR-8 ovarian = test system: OVCAR-8 ovarian
PC-3 prostate = test system: PC-3 prostate
RPMI-8226 leukemia = test system: RPMI-8226 leukemia
RXF 393 renal = test system: RXF 393 renal
SF-268 CNS = test system: SF-268 CNS
SF-295 CNS = test system: SF-295 CNS
SF-539 CNS = test system: SF-539 CNS
SK-MEL-2 melanoma = test system: SK-MEL-2 melanoma
SK-MEL-28 melanoma = test system: SK-MEL-28 melanoma
SK-MEL-5 melanoma = test system: SK-MEL-5 melanoma
SK-OV-3 ovarian = test system: SK-OV-3 ovarian
SN12C renal = test system: SN12C renal
SNB-19 CNS = test system: SNB-19 CNS
SNB-75 CNS = test system: SNB-75 CNS
SW-620 colon = test system: SW-620 colon
T-47D breast = test system: T-47D breast
TK-10 renal = test system: TK-10 renal
U251 CNS = test system: U251 CNS
UACC-257 melanoma = test system: UACC-257 melanoma
UACC-62 melanoma = test system: UACC-62 melanoma
UO-31 renal = test system: UO-31 renal

NNC(NN)NN.n1nc(-c2nn[nH]n2)n[nH]1
inactive: GI50 (786-0 renal) > 100 µM | GI50 (A498 renal) > 100 µM | GI50 (A549 NSCLC) > 100 µM | GI50 (ACHN renal) > 100 µM | GI50 (BT-549 breast) > 100 µM | GI50 (CAKI-1 renal) > 100 µM | GI50 (COLO 205 colon) > 100 µM | GI50 (DU-145 prostate) > 100 µM | GI50 (EKVX NSCLC) > 100 µM | GI50 (HCT-116 colon) > 100 µM | GI50 (HCT-15 colon) > 100 µM | GI50 (HOP-62 NSCLC) > 100 µM | GI50 (HOP-92 NSCLC) > 100 µM | GI50 (HS 578T breast) > 100 µM | GI50 (HT29 colon) > 100 µM | GI50 (IGROV1 ovarian) > 100 µM | GI50 (K-562 leukemia) 56.6 µM | GI50 (KM12 colon) > 100 µM | GI50 (LOX IMVI melanoma) > 100 µM | GI50 (M14 melanoma) > 100 µM | GI50 (MALME-3M melanoma) > 100 µM | GI50 (MCF7 breast) > 100 µM | GI50 (MDA-MB-231 breast) > 100 µM | GI50 (MDA-MB-435) > 100 µM | GI50 (MDA-N) > 100 µM | GI50 (NCI-H226 lung) > 100 µM | GI50 (NCI-H23 lung) > 100 µM | GI50 (NCI-H322M lung) > 100 µM | GI50 (NCI-H460 lung) > 100 µM | GI50 (NCI-H522 lung) > 100 µM | GI50 (NCI/ADR-RES ovarian) > 100 µM | GI50 (OVCAR-3 ovarian) > 100 µM | GI50 (OVCAR-4 ovarian) > 100 µM | GI50 (OVCAR-5 ovarian) > 100 µM | GI50 (OVCAR-8 ovarian) > 100 µM | GI50 (PC-3 prostate) > 100 µM | GI50 (RPMI-8226 leukemia) > 100 µM | GI50 (RXF 393 renal) > 100 µM | GI50 (SF-268 CNS) > 100 µM | GI50 (SF-295 CNS) > 100 µM | GI50 (SF-539 CNS) > 100 µM | GI50 (SK-MEL-2 melanoma) > 100 µM | GI50 (SK-MEL-28 melanoma) > 100 µM | GI50 (SK-MEL-5 melanoma) > 100 µM | GI50 (SK-OV-3 ovarian) > 100 µM | GI50 (SN12C renal) > 100 µM | GI50 (SNB-19 CNS) > 100 µM | GI50 (SNB-75 CNS) > 100 µM | GI50 (SW-620 colon) > 100 µM | GI50 (T-47D breast) > 100 µM | GI50 (TK-10 renal) > 100 µM | GI50 (U251 CNS) > 100 µM | GI50 (UACC-257 melanoma) > 100 µM | GI50 (UACC-62 melanoma) > 100 µM | GI50 (UO-31 renal) > 100 µM
> 100 µM: TGI (786-0 renal) | TGI (A498 renal) | TGI (A549 NSCLC) | TGI (ACHN renal) | TGI (BT-549 breast) | TGI (CAKI-1 renal) | TGI (COLO 205 colon) | TGI (DU-145 prostate) | TGI (EKVX NSCLC) | TGI (HCT-116 colon) | TGI (HCT-15 colon) | TGI (HOP-62 NSCLC) | TGI (HOP-92 NSCLC) | TGI (HS 578T breast) | TGI (HT29 colon) | TGI (IGROV1 ovarian) | TGI (K-562 leukemia) | TGI (KM12 colon) | TGI (LOX IMVI melanoma) | TGI (M14 melanoma) | TGI (MALME-3M melanoma) | TGI (MCF7 breast) | TGI (MDA-MB-231 breast) | TGI (MDA-MB-435) | TGI (MDA-N) | TGI (NCI-H226 lung) | TGI (NCI-H23 lung) | TGI (NCI-H322M lung) | TGI (NCI-H460 lung) | TGI (NCI-H522 lung) | TGI (NCI/ADR-RES ovarian) | TGI (OVCAR-3 ovarian) | TGI (OVCAR-4 ovarian) | TGI (OVCAR-5 ovarian) | TGI (OVCAR-8 ovarian) | TGI (PC-3 prostate) | TGI (RPMI-8226 leukemia) | TGI (RXF 393 renal) | TGI (SF-268 CNS) | TGI (SF-295 CNS) | TGI (SF-539 CNS) | TGI (SK-MEL-2 melanoma) | TGI (SK-MEL-28 melanoma) | TGI (SK-MEL-5 melanoma) | TGI (SK-OV-3 ovarian) | TGI (SN12C renal) | TGI (SNB-19 CNS) | TGI (SNB-75 CNS) | TGI (SW-620 colon) | TGI (T-47D breast) | TGI (TK-10 renal) | TGI (U251 CNS) | TGI (UACC-257 melanoma) | TGI (UACC-62 melanoma) | TGI (UO-31 renal)
